Data taken from patent publication US7511041B2, “Fused azole-pyrimidine derivatives” (Bayer Pharmaceuticals Corporation, priority 2002, dated 2009).
pIC50: −log10 of the molar value.

Protein sequences, listed by entry. Tags and fused reporters are not part of them.
UniProt P48736, whole entry: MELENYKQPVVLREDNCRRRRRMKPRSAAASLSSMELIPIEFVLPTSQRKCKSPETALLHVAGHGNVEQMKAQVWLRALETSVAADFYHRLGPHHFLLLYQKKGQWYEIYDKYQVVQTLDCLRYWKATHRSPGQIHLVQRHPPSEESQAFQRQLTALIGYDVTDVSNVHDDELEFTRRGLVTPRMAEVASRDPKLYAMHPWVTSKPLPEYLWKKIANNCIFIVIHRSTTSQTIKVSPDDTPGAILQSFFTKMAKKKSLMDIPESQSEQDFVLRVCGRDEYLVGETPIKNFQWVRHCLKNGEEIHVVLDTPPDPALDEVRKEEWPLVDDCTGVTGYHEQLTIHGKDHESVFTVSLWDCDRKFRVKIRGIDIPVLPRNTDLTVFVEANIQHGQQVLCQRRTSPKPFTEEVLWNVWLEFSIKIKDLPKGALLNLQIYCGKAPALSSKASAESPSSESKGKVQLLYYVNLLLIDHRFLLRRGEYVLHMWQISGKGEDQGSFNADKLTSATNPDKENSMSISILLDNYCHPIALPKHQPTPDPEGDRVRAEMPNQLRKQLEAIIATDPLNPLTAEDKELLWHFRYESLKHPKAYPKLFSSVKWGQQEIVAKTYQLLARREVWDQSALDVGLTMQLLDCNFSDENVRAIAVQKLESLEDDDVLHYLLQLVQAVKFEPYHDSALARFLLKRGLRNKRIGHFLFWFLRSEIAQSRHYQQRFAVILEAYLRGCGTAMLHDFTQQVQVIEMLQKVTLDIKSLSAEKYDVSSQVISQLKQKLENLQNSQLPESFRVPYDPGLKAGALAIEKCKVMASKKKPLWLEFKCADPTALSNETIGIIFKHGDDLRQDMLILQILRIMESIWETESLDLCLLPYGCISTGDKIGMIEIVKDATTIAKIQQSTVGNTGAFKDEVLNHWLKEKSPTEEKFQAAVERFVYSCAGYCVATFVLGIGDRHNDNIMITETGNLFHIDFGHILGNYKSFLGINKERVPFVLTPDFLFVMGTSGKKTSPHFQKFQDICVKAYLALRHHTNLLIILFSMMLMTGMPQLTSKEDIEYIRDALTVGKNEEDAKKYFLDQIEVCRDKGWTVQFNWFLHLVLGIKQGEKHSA

Target: Recombinant human PI3Kγ (full length human PI3K p110γ) (Homo sapiens, UniProt P48736)
Assay: Kinase assay of PI3Kγ (solid-phase lipid kinase assay)
Type: biochemical
Settings: read-out: in vitro; Table 1, isozyme not given

Q: How did the pIC50 turn out when `COc1c(C)ccc2c1N=C(/C=C(\O)c1ccc(NC(C)=O)nc1)N1CCN=C21` [Example 1-33] was run?
A: > 7.00
